Assay [1] deals with human TREX1 (Homo sapiens, UniProt Q9NSU2). Nature of the assay: hTREX1 Biochemical Assay (fluorescence, dsDNA substrate degradation). The conditions noted are these: read-out: hTREX1 IC50; full length human TREX1, 4 h pre-incubation, 18 h reaction at 25° C. Here is the method: Degradation of the dsDNA liberates free fluorophore to produce a fluorescent signal. Specifically, 7.5 μL of N-terminally His-Tev tagged full length human TREX1 (expressed in E. coli and purified in house) in reaction buffer (50 mM Tris, 150 mM NaCl, 2 mM DTT, 0.1 mg/mL BSA, 0.01% (w/v) Tween-20, 5 mM MgCl2, pH 7.4) was added to a 384-well Black ProxiPlate Plus (PerkinElmer) which already contained compound (150 nL) at varying concentrations as a 10 point dose-response in DMSO. The plate was incubated at 25° C. for 4 hours. Reactions were initiated by adding 7.5 μL of dsDNA substrate (Strand A: 5′ TEX615/GCT AGG CAG 3′; Strand B: 5′ CTG CCT AGC/IAbRQSp (Integrated DNA Technologies)) in reaction buffer. Final concentrations were 4 pM TREX1, 60 nM dsDNA substrate in reaction buffer with 1.0% DMSO (v/v). After 18 hours at 25° C., reactions were quenched by the addition of 2 p L of 500 mM EDTA. […] After a 5-minute incubation at room temperature, plates were read in an EnVision plate reader (PerkinElmer) measuring fluorescence at 615 nm following excitation w/ 570 nm light. IC50 values were calculated by comparing the measured fluorescence at 615 nm relative to control wells pre-quenched w/ EDTA (100% inhibition) and no inhibitor (0% inhibition) controls as using non-linear least square four parameter fits and either Genedata or GraphPad Prism (GraphPad Software, Inc.).

Chains of the proteins cited; added tags and fusions are not shown.
UniProt Q9NSU2, whole entry: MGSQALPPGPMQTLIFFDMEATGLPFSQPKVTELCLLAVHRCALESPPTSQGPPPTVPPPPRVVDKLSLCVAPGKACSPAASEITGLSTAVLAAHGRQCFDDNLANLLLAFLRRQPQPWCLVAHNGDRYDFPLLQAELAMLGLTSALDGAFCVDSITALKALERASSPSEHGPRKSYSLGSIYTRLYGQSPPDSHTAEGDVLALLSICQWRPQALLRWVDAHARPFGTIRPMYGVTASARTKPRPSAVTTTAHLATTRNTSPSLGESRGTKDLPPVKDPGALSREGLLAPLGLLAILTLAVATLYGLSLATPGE
UniProt Q91XB0, whole entry: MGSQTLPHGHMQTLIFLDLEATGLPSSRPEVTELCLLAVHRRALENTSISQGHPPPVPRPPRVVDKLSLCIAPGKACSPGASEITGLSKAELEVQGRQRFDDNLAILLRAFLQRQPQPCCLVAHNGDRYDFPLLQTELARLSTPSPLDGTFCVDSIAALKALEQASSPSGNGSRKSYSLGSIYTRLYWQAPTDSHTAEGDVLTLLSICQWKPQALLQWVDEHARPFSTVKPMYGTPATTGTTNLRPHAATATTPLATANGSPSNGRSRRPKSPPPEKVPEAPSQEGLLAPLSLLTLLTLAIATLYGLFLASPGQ
UniProt Q9BQ50, whole entry: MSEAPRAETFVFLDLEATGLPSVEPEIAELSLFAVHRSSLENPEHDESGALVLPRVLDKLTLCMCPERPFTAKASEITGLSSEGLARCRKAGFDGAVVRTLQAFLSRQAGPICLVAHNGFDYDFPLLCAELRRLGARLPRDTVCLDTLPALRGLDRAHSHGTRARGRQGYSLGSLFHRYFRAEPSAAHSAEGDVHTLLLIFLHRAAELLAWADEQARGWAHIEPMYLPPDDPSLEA

Assay [2] addresses mouse TREX1 (Mus musculus, UniProt Q91XB0). The experiment in a line: mTREX1 Biochemical Assay (fluorescence, dsDNA substrate degradation). The conditions noted are these: read-out: mTREX1 IC50; full length mouse TREX1, 4 h pre-incubation, 18 h reaction at 25° C. How it is done:
Degradation of the dsDNA liberates free fluorophore to produce a fluorescent signal. Specifically, 7.5 p L of N-terminally His-Tev tagged full length mouse TREX1 (expressed in E. coli and purified in house) in reaction buffer (50 mM Tris, 150 mM NaCl, 2 mM DTT, 0.1 mg/mL BSA, 0.01% (w/v) Tween-20, 5 mM MgCl2, pH 7.4) was added to a 384-well Black ProxiPlate Plus (PerkinElmer) which already contained compound (150 nL) at varying concentrations as a 10 point dose-response in DMSO. The plate was incubated at 25° C. for 4 hours. Reactions were initiated by adding 7.5 μL of dsDNA substrate (Strand A: 5′ TEX615/GCT AGG CAG 3′; Strand B: 5′ CTG CCT AGC/IAbRQSp (Integrated DNA Technologies)) in reaction buffer. […] Final concentrations in the quenched reaction were 5.3 pM TREX1, 53 nM DNA and 59 mM EDTA in a volume of 17 p L. After a 5-minute incubation at room temperature, plates were read in an EnVision plate reader (PerkinElmer) measuring fluorescence at 615 nm following excitation w/ 570 nm light. IC50 values were calculated by comparing the measured fluorescence at 615 nm relative to control wells pre-quenched w/ EDTA (100% inhibition) and no inhibitor (0% inhibition) controls as using non-linear least square four parameter fits and either Genedata or GraphPad Prism (GraphPad Software, Inc.).

Assay [3] has as its target human TREX2 (Homo sapiens, UniProt Q9BQ50). The experiment in a line: hTREX2 Biochemical Assay (selectivity hTREX1 vs hTREX2). The conditions noted are these: biochemical selectivity for hTREX1 vs hTREX2. How it is done:
Degradation of the dsDNA liberates free fluorophore to produce a fluorescent signal. Specifically, 7.5 p L of N-terminally His-Tev tagged human TREX2 (residues M44-A279, expressed in E. coli and purified in house) in reaction buffer (50 mM Tris, 150 mM NaCl, 2 mM DTT, 0.1 mg/mL BSA, 0.01% (w/v) Tween-20, 5 mM MgCl2, pH 7.4) was added to a 384-well Black ProxiPlate Plus (PerkinElmer) which already contained compound (150 nL) at varying concentrations as a 10 point dose-response in DMSO. The plate was incubated at 25° C. for 4 hours. Reactions were initiated by adding 7.5 μL of dsDNA substrate (Strand A: 5′ TEX615/GCT AGG CAG 3′; Strand B: 5′ CTG CCT AGC/IAbRQSp (IDT)) in reaction buffer. Final concentrations were 50 pM TREX2, 60 nM dsDNA substrate in reaction buffer with 1.0% DMSO (v/v). After 18 hours at 25° C., reactions were quenched by the addition of 2 μL of 500 mM EDTA. […] After a 5-minute incubation at room temperature, plates were read in an EnVision plate reader (PerkinElmer) measuring fluorescence at 615 nm following excitation w/ 570 nm light. IC50 values were calculated by comparing the measured fluorescence at 615 nm relative to control wells pre-quenched w/ stop buffer (100% inhibition) and no inhibitor (0% inhibition) controls as using non-linear least square four parameter fits and either Genedata or GraphPad Prism (GraphPad Software, Inc.).

This is an account of results in patent US20240262814A1, “MODULATORS OF TREX1” (Constellation Pharmaceuticals, Inc., priority 2021, published 2024).

With `CC(c1nc(C(=O)Nc2cnoc2)c(O)c(=O)n1C)C(c1ccccc1C#N)c1ccccc1C#N` (single isomer, unassigned) [Example 4 Isomer 2], the 50% inhibitory concentration (IC50) was 1 to 10 nM in assay [1] and greater than 10 nM in assay [2]. The “hTREX1 vs hTREX2 selectivity” value in assay [3] is “C (C = >50 fold selective for hTREX1)”.
